Test results taken from ChEMBL document CHEMBL5726786, “Substituted prolines/piperidines as orexin receptor antagonists” (2018).

Amino acid sequences for entries named in this document (tags omitted).
UniProt O43614, whole entry: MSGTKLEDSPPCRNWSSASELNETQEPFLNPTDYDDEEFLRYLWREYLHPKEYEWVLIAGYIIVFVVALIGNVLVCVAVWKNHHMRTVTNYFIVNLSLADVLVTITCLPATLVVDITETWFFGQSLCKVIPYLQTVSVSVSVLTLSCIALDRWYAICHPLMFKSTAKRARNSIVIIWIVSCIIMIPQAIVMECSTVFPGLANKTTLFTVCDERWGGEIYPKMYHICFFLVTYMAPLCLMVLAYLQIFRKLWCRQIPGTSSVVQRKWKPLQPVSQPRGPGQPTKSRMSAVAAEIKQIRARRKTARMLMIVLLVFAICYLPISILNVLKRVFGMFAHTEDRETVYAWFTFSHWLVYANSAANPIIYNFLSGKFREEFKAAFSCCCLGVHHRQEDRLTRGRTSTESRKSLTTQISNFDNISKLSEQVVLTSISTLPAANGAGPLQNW

Biological target: Orexin receptor type 2 (Homo sapiens, UniProt O43614)
Test: Cell-based Functional Assay: Measurement of [Ca2+]i using a FLIPR: CHO-OX1 or CHO-OX2 cells are seeded into black-walled clear-base 384-well plates (Costar) at a density of 20,000 cells per well in F12-K medium supplemented with 10% FBS and selection antibiotic (500 ug/ml G418 or 15 ug/ml Blasticidin) and cultured overnight. The cells are incubated with equal volume of calcium4 loading buffer …

IC50 [nM]	Compound
2000	Cc1ccc(-n2nccn2)c(C(=O)N2CCC[C@@H](C)[C@H]2CNc2ncc3ccccc3n2)c1
5000	Cc1nc(C(=O)N2C[C@H]3CCC[C@H]3C2CNc2ncc(C(F)(F)F)cn2)c(-c2ccc(F)cc2)s1 (mixture of isomers)
253	Cc1nc(C(=O)N2CCC[C@H](C)[C@H]2CNc2nc3ccccc3o2)c(-c2ccc(F)cc2)s1 (racemic)
2300	Cc1ccc(-n2nccn2)c(C(=O)N2CCC[C@@H](C)[C@H]2CNc2ccc(C(F)(F)F)cn2)c1 (racemic)
500	C[C@@H]1CCCN(C(=O)c2ccccc2-n2nccn2)[C@@H]1CNc1ccc(C(F)(F)F)cn1 (racemic)
220	Cc1nc(C(=O)N2CCC[C@@H](C(F)(F)F)[C@H]2CNc2nc3ccccc3o2)c(-c2ccccc2)s1 (racemic)
340	Cc1nc(C(=O)N2CCC[C@@H](C)[C@H]2CNc2nc3ccccc3o2)c(-c2ccc(F)cc2)s1 (racemic)
1400	Cc1cccc(NC[C@@H]2[C@H](C)CCCN2C(=O)c2nc(C)sc2-c2ccc(F)cc2)n1 (racemic)
